US9897611B2, “Molecule library constructed on the basis of backbone structure of microprotein” (NATIONAL INSTITUTE OF ADVANCED INDUSTRIAL SCIENCE AND …, priority 2012, dated 2018)

Target: T1, human IgG Fc region (Homo sapiens, UniProt P01857)
T1 construct: The Fc region was prepared by the papain digestion of a human monoclonal antibody IgG
Assay: SPR binding affinity analysis on immobilized Fc region prepared by papain digestion of human monoclonal IgG
Settings: alanine variants of p17_2, Fc region immobilized on CM5; read-out: KD (nM), binding dissociation constant of p17_2 variant
Experimental: Subsequently, use of the constructed T7 phage display library is shown in the steps of: contacting the library with the target substance human IgG Fc region; and selecting and recovering phages bound with the human IgG Fc region. The Fc region was prepared by the papain digestion of a human monoclonal antibody IgG (Chugai Pharmaceutical Co., Ltd.) according to the instruction manual attached to Pierce® Fab Preparation Kit (Thermo Fisher Scientific Inc. Pierce) followed by purification by affinity chromatography using MabSelect SuRe (GE Healthcare Japan Corp.), HiTrap DEAE anion-exchange chromatography (GE Healthcare Japan Corp.), and gel filtration chromatography using Superdex 200 (GE Healthcare Japan Corp.). The prepared Fc region was chemically biotinylated via an amino group using D-Biotinoyl-γ-Aminocaproic Acid N-Hydroxysuccinimide Ester (F. Hoffmann-La Roche, Ltd.) according to the attached instruction manual. […]
Subsequently, the prepared p17_2 peptide was analyzed for its binding affinity by surface plasmon resonance. […]
Subsequently, the prepared 5 types of polypeptides were analyzed for their binding affinity by surface plasmon resonance. […]

- Kd: 180 nM
Substance: p17_M51A: alanine variant of p17_2 polypeptide, SEQ ID NO: 64 (GPGISAFSPGRGVYDPETGTWYDAAWHLGELVWATYYDPETGTWEPDWQRALGQ; Selected sequence, p17_M51A)
